The target in this test is m1 receptors in hippocampus (Rattus norvegicus, UniProt P08482). Briefly: biochemical.

Amino acid sequences for entries named in this document (tags omitted). A change or cut given only in a name is not applied to a line headed by its entry.
UniProt P08482: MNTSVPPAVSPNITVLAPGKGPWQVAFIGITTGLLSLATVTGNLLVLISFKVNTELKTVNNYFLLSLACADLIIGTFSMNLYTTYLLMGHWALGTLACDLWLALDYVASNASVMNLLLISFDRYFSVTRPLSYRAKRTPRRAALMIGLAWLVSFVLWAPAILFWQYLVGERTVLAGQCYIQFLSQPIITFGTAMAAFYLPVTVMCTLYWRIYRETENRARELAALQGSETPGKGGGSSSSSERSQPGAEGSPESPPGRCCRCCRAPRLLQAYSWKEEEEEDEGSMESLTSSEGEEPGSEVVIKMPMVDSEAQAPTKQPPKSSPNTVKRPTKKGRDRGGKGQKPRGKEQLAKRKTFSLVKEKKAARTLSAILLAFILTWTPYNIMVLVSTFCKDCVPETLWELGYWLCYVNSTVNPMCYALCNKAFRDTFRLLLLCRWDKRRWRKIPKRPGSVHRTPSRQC

Structures are written as SMILES.

One molecule from patent US6034108A, “Method for treating mental retardation” (Eli Lilly and Company, priority 1998, dated 2000) can be followed below.

A word on the Ki: it is the dissociation constant of the complex between target and ligand, obtained from inhibition or displacement.

With `CCCCCCOc1nsnc1C1=CCCN(C)C1` [Xanomeline, 3-(4-hexyloxy-1,2,5-thiadiazol-3-yl)-1,2,5,6-tetrahydro-1-methylpyridine], the affinity corresponds to a Ki of 5 nM.
